Laboratory results reported in paper PMC12692169, “Identification of Novel TAT-I24-Related Peptides with Antiviral Activities” (International Journal of Molecular Sciences, 2025).
Residues, ends and D or L forms follow the SMILES beside them.

System: plasmid-DNA (dsDNA)
Assay: Fluorescence-based dsDNA-binding assay (SYBR Gold, plasmid DNA)
Conditions: TAT-I24 as reference, three independent experiments in duplicates

CC(C)C[C@H](NC(=O)[C@H](Cc1ccccc1)NC(=O)[C@H](CS)NC(=O)[C@H](Cc1ccccc1)NC(=O)[C@@H]1CCCN1C(=O)[C@H](CO)NC(=O)[C@H](CCC(N)=O)NC(=O)[C@@H]1CCCN1C(=O)[C@@H]1CCCN1C(=O)[C@H](CCCNC(=N)N)NC(=O)[C@H](CCCNC(=N)N)NC(=O)[C@H](CCCNC(=N)N)NC(=O)[C@H](CCC(N)=O)NC(=O)[C@H](CCCNC(=N)N)NC(=O)[C@H](CCCNC(=N)N)NC(=O)[C@H](CCCCN)NC(=O)[C@H](CCCCN)NC(=O)[C@H](CCCNC(=N)N)NC(=O)CN)C(=O)N[C@@H](C)C(=O)N[C@@H](Cc1ccccc1)C(=O)N[C@@H](CS)C(=O)N[C@@H](Cc1ccccc1)C(=O)O [TAT-T7] (H-GRKKRRQRRRPPQSPFCFLAFCF-OH; N-terminus and C-terminus assumed)
dsDNA-binding (reduction in SYBR Gold fluorescence): reduced dsDNA-binding compared to TAT-I24
